The target of the experiment is Aurora kinase B (Homo sapiens, UniProt Q96GD4). Nature of the experiment: Inhibition of Aurora B (unknown origin) at 100 nM by Z-LYTE assay relative to control.

The chains behind the UniProt entries cited, without tags or fusion partners.
UniProt Q96GD4, whole entry: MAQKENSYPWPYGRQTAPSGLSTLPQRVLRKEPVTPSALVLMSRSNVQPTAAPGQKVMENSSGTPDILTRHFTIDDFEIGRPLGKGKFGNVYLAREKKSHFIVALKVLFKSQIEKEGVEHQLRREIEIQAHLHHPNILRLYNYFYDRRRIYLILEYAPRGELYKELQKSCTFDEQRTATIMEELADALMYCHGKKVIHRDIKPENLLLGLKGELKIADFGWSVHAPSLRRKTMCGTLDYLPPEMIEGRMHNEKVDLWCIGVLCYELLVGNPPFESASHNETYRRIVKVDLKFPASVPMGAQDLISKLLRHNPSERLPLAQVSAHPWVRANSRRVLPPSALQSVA

`O=C1Nc2cc(-c3ccc(NS(=O)(=O)c4ccc(F)c(Cl)c4)cc3)ccc2/C1=C/c1ccc[nH]1`: the inhibition (in general, the relative decrease from the control value, in per cent) worked out at 46%.

The values above are taken from ChEMBL document CHEMBL5505991, “Novel sulfonamide-indolinone hybrids targeting mitochondrial respiration of breast cancer cells” (Eur J Med Chem, 2024).
